Source: PubChem BioAssay AID588413 (Sanford-Burnham Center for Chemical Genomics, 2011)
The list shows a part of the results, in another mix than the full data. Calls of active or inactive are those of the source.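 The calls were made as follows: active = inhibition above about 55% (limit read from the data); inactive = the rest.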

Test: Gli-Sufu pathway antagonists, primary screen, luciferase luminescence, Sufu-KO-LIGHT cells, uHTS (AID 588413);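 also: 0% = DMSO-treated cells and 100% = wells with medium but no cells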
Conditions: Sufu-KO-LIGHT fibroblasts, Gli luciferase reporter luminescence; at 5 µM; stronger effect = higher value

For CCOC(=O)c1ccc(NC(=O)C(C)(CCl)SC)cc1 (stereo not drawn), which inhibition is on record?
Its inhibition is inactive: -16%.

With O=C(OC1CN2CCC1CC2)c1cccc([N+](=O)[O-])c1 (stereo not drawn) as the compound, how does the inhibition read?
Its inhibition is inactive: 25.6%.

For CCC(C)N(CC(C)C)C(=S)SC(NC(C)=O)C(Cl)(Cl)Cl (stereo not drawn), which inhibition is on record?
The inhibition was inactive: 9.44%.

Which inhibition does the source give for COP1(=S)c2c(C)nn(CCC#N)c2N=C(c2ccc(F)cc2)N1C (stereo not drawn) here?
Its inhibition is inactive: 5.88%.

Which inhibition does the source give for O=C(Nc1ccncc1[N+](=O)[O-])c1ccc([N+](=O)[O-])cc1[N+](=O)[O-] here?
The inhibition was inactive: -0.95%.

For O=C(COc1ccccc1)OC1CN2CCC1CC2 (stereo not drawn), which inhibition is on record?
The inhibition was inactive: 1.92%.

Which inhibition does the source give for CCOC(=O)Nc1cccc([As](=O)(O)O)c1 here?
The inhibition was inactive: 22.1%.

With O=[N+]([O-])c1ccc(Nc2ccc(Oc3ccc([N+](=O)[O-])cc3[N+](=O)[O-])cc2)c([N+](=O)[O-])c1 as the compound, how does the inhibition read?
Its inhibition is inactive: -7.79%.

With O=P(Nc1ccccn1)(c1cccc2ccccc12)c1cccc2ccccc12 as the compound, how does the inhibition read?
The inhibition was inactive: -3.05%.

For Cc1cc(SC(NC=O)C(Cl)(Cl)Cl)ncn1 (stereo not drawn), which inhibition is on record?
Its inhibition is inactive: -4.04%.

With CC1CCNP(=O)(N(CCCl)CCCl)O1 (stereo not drawn) as the compound, how does the inhibition read?
The inhibition was inactive: 7.47%.

With CCOC(=O)Nc1ccc([As](=O)(O)O)c(O)c1 as the compound, how does the inhibition read?
Its inhibition is inactive: 7.61%.

With Cc1cc(SC(NC(=O)c2ccccc2)C(Cl)(Cl)Cl)nc(C(C)C)n1 (stereo not drawn) as the compound, how does the inhibition read?
The inhibition was inactive: -3.01%.

For CCCCOc1ccc(C(=O)NCC2(N3CCCCC3)CCCCC2)cc1OC, which inhibition is on record?
The inhibition was inactive: 35.5%.

Which inhibition does the source give for CC(C)c1ccc(OP(=O)(Nc2ccccn2)Oc2ccccc2F)cc1 (stereo not drawn) here?
The inhibition was inactive: 2.87%.

For COC(=O)C1(C)COP(=O)(N2CCCCCC2)OC1 (stereo not drawn), which inhibition is on record?
The inhibition was inactive: -5.11%.

For ClCCSc1nnc(-c2cccnc2)o1, which inhibition is on record?
Its inhibition is inactive: -13.7%.

Which inhibition does the source give for O=[N+]([O-])c1cc([N+](=O)[O-])c(-c2ccn[nH]2)s1 here?
Its inhibition is inactive: 10.8%.

With CCN(CC)C(=S)SC(NC=O)C(Cl)(Cl)Cl (stereo not drawn) as the compound, how does the inhibition read?
Its inhibition is inactive: -0.59%.

For O=C(OC1CN2CCC1CC2)c1cccc2[nH]cnc12 (stereo not drawn), which inhibition is on record?
The inhibition was inactive: 8.22%.

With CC(C)NC(=O)NP(=O)(Oc1ccccc1)Oc1ccccc1 as the compound, how does the inhibition read?
Its inhibition is inactive: -2.4%.

Which inhibition does the source give for COc1cc(C(=O)NCC2(N3CCOCC3)CCCCC2)ccc1OCC(C)C here?
Its inhibition is inactive: 24.2%.

Which inhibition does the source give for O=[N+]([O-])c1ccc(-c2cc([N+](=O)[O-])c(O)c([N+](=O)[O-])c2)cc1 here?
The inhibition was inactive: -8.24%.

With O=[As](O)(c1ccc(O)cc1)c1ccccc1O as the compound, how does the inhibition read?
The inhibition was inactive: -12.6%.

For C[As](=O)(O)c1cccc(C(=O)O)c1, which inhibition is on record?
The inhibition was inactive: 4.99%.

For Cc1ccc2nc3c(c(C)c2c1)CC(C(Cl)Cl)S3 (stereo not drawn), which inhibition is on record?
Its inhibition is inactive: -31%.

For Cc1ccc(OP(=O)(Nc2ccc([N+](=O)[O-])cn2)Oc2ccc(C)cc2)cc1, which inhibition is on record?
The inhibition was inactive: 3.82%.

For COc1ccc(N/C(=N/P(=O)(N2CCOCC2)N2CCOCC2)N2CCOCC2)cc1, which inhibition is on record?
Its inhibition is inactive: -2.13%.

For O=[N+]([O-])c1cc(Oc2ccc([N+](=O)[O-])cc2C(F)(F)F)cc([N+](=O)[O-])c1, which inhibition is on record?
Its inhibition is inactive: 5.16%.

With Cc1cc(=O)[nH]c(N[N+](=O)[O-])n1 as the compound, how does the inhibition read?
Its inhibition is inactive: -2.45%.

With O=C(OC1CN2CCC1CC2)C12CC3CC(CC(C3)C1)C2 (stereo not drawn) as the compound, how does the inhibition read?
Its inhibition is inactive: 1.29%.

For Cc1c2c(nc3ccccc13)SC(C(Cl)Cl)C2 (stereo not drawn), which inhibition is on record?
The inhibition was inactive: -2.06%.

With COc1cc(I)ccc1[As](=O)(O)O as the compound, how does the inhibition read?
The inhibition was inactive: -1.53%.

With COc1ccc2nc(NP(=O)(c3ccccc3)c3ccccc3)sc2c1 as the compound, how does the inhibition read?
The inhibition was inactive: 0.29%.

For O=P1(N(CCCl)CCCl)OCCCN1CCCl (stereo not drawn), which inhibition is on record?
The inhibition was inactive: -8.15%.

Which inhibition does the source give for O=P1(N(CCCl)CCCl)Nc2ccccc2N1 here?
The inhibition was inactive: 11.3%.

Which inhibition does the source give for CCCOP(=S)(Nc1nc(N)cc(=O)[nH]1)OCCC here?
Its inhibition is inactive: -0.87%.

Which inhibition does the source give for Cc1ccc(NCCc2c([N+](=O)[O-])cc([N+](=O)[O-])cc2[N+](=O)[O-])cc1 here?
The inhibition was inactive: 43.6%.

Which inhibition does the source give for Nc1cccc2c([As](=O)(O)O)cccc12 here?
Its inhibition is inactive: -12.8%.

Which inhibition does the source give for CCOP(=O)(Nc1cccc2ccccc12)OCC here?
Its inhibition is inactive: 1.42%.

With COc1cc(C2NCCC3(OCCO3)C2(C)C)cc(OC)c1OC (stereo not drawn) as the compound, how does the inhibition read?
Its inhibition is inactive: -7.35%.

For CS(=O)(=O)c1ccc(Cl)c(NC(=O)COC(=O)C(O)(c2ccccc2)c2ccccc2)c1, which inhibition is on record?
Its inhibition is inactive: -7.11%.

With COc1cc(C(=O)NCC2(N3CCOCC3)CCCCC2)cc(Cl)c1OC(C)C as the compound, how does the inhibition read?
Its inhibition is inactive: 38.2%.

With O=[As](O)(O)c1cccnc1 as the compound, how does the inhibition read?
The inhibition was inactive: 5.02%.

With O=C(OC1CN2CCC1CC2)c1ccc(Cl)cc1 (stereo not drawn) as the compound, how does the inhibition read?
The inhibition was inactive: 5.72%.

Which inhibition does the source give for O=[As](O)(c1cccc(O)c1)c1cccc(O)c1 here?
Its inhibition is inactive: -1.35%.

Which inhibition does the source give for Cc1cccc(OCC(=O)OC2CN3CCC2CC3)c1 (stereo not drawn) here?
Its inhibition is inactive: 0.47%.

With NC(=O)Nc1ccc([As](=O)(O)O)cc1 as the compound, how does the inhibition read?
The inhibition was inactive: -5.15%.

With CN(C(=O)Cc1ccc(Cl)c(Cl)c1)[C@H]1CC[C@@]2(CCCO2)C[C@@H]1N1CCCC1 as the compound, how does the inhibition read?
Its inhibition is inactive: 2.18%.

With CN(C)C(=O)c1cc([N+](=O)[O-])cc2c1-c1c(cc([N+](=O)[O-])cc1[N+](=O)[O-])C2=O as the compound, how does the inhibition read?
Its inhibition is inactive: 4.65%.

Which inhibition does the source give for O=[N+]([O-])c1ccc2c(c1)nnn2O here?
The inhibition was inactive: -5.3%.

With CCOP1(=S)c2c(C)nn(CCC#N)c2N=C(c2ccc(F)cc2)N1C (stereo not drawn) as the compound, how does the inhibition read?
Its inhibition is inactive: 2.83%.

For CN(C(=O)Cc1ccccc1)[C@@H]1CC[C@]2(CCCO2)C[C@H]1N1CCCC1, which inhibition is on record?
Its inhibition is inactive: 6.43%.

For N#CCCN(C(=O)COC(=O)C(O)(c1ccccc1)c1ccccc1)c1ccc(F)cc1, which inhibition is on record?
Its inhibition is inactive: -10.6%.

With CS(=O)(=O)c1cc([N+](=O)[O-])c2no[n+]([O-])c2c1 as the compound, how does the inhibition read?
The inhibition was inactive: 0.28%.

With O=P(Nc1nccs1)(c1ccccc1)c1nc2ccccc2s1 (stereo not drawn) as the compound, how does the inhibition read?
Its inhibition is inactive: -13.4%.

With O=P(Nc1nccs1)(Oc1ccccc1)Oc1ccccc1 as the compound, how does the inhibition read?
The inhibition was inactive: -2.97%.

Which inhibition does the source give for CCOP1(=S)c2c(C)nn(CCC#N)c2N=C(c2ccccc2F)N1C (stereo not drawn) here?
Its inhibition is inactive: -8.33%.

For Nc1ccccc1[As](=O)(O)c1ccccc1, which inhibition is on record?
Its inhibition is inactive: -9.64%.

Which inhibition does the source give for O=C(O)COc1ccc([As](=O)(O)O)cc1[N+](=O)[O-] here?
The inhibition was inactive: -3.09%.

With O=P1(Nc2ncccn2)COc2ccccc2OC1 as the compound, how does the inhibition read?
The inhibition was inactive: -3.34%.

Which inhibition does the source give for O=P1(Nc2ccc(Br)cn2)COc2ccccc2OC1 here?
The inhibition was inactive: 1.74%.

For Cc1ccc(OCC(=O)OC2CN3CCC2CC3)cc1 (stereo not drawn), which inhibition is on record?
The inhibition was inactive: -2.46%.
